Experimental data published in patent publication US10689361B2, “Quinoline derivative and use thereof” (priority 2016, dated 2020).

Protein sequences, listed by entry. Tags and fused reporters are not part of them. Residues count along the entry.
UniProt P07949, 29-1114, species assumed: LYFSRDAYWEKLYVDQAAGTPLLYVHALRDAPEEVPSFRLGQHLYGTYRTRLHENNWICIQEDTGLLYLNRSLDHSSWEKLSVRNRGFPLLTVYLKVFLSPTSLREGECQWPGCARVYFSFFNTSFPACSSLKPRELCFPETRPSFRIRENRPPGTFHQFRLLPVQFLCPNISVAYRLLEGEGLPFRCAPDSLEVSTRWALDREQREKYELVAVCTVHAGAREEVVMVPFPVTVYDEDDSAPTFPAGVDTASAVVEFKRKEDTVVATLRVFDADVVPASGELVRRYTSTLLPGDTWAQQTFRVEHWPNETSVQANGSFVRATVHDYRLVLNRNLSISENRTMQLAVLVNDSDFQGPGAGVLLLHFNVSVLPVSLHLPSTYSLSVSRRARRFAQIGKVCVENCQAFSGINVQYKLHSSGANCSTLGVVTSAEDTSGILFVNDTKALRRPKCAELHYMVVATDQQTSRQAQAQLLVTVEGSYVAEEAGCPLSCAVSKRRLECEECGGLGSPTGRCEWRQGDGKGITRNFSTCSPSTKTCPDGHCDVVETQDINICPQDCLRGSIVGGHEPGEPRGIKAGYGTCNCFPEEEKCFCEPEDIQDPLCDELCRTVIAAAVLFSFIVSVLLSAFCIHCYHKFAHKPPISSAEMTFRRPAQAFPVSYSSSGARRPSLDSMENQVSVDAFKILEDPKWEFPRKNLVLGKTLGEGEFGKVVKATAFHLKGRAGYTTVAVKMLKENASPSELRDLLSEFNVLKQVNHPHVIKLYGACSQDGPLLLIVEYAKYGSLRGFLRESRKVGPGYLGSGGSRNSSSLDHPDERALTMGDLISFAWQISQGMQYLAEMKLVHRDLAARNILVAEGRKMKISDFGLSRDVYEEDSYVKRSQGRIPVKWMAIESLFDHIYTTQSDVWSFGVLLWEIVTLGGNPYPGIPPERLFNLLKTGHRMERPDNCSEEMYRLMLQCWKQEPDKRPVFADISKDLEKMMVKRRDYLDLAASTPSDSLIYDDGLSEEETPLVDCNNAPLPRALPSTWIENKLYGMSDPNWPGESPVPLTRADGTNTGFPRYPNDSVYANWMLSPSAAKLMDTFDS

Molecular target: RET (Homo sapiens, UniProt P07949)
Assay: Caliper Mobility Shift Assay, kinase inhibition
Assay type: biochemical
Conditions: read-out: Kinase inhibitory activity (IC50, nM) RET
Protocol: The semi-inhibitory concentration IC50 (the concentration of the compound required to inhibit the enzymatic activity to 50%) of a compound was measured by mixing a fixed enzyme with a specific substrate and the test compound of different concentrations. The test method used was Caliper Mobility Shift Assay, the kinases tested were VEGFR1, VEGFR2, VEGFR3, FLT3, PDGFRα, PDGFRβ, FGFR1, RET, EGFR and IGF1R, and the standard reference compound used was staurosporine.

IC50: 35 nM
Structure (SMILES): CNC(=O)c1cc(Oc2ccc(NC(=O)Nc3ccc(Cl)c(C(F)(F)F)c3)c(F)c2)ccn1 [Regorafenib, regorafenib, reference compound]
